Reference: patent US12194093B2, “Dosing parameters for CD47 targeting therapies to hematologic malignancies” (The Board of Trustees of the Leland Stanford Junior …, priority 2017, dated 2025)

Biological target: T1, CD47 (Homo sapiens, UniProt Q08722)
T1 construct: Patient peripheral blood and bone marrow aspirates are collected at scheduled time points; endogenous in cells; host or cells: patient peripheral blood and bone marrow aspirate cells (red blood cells, white blood cells, leukemic blasts)
Assay: CD47 receptor occupancy assay on patient blood and bone marrow
Type: in vivo

For “Hu5F9-G4: a humanized anti-CD47 antibody”, the “receptor occupancy, CD45+ peripheral blood and bone marrow” value (1 mg/kg at day 1 and day 4, 15 mg/kg at day 8) was “nearly complete receptor occupancy” and the “CD47 receptor occupancy on leukemic bone marrow cells” value (two Cohort 3 patients with biologic response, 10 mg/kg twice weekly) was 50-60%.
